{"sequences": {"note": "Chains of the proteins cited; added tags and fusions are not shown. Lines headed by an entry give the natural chain unless they say otherwise; changes in a name come on top.", "UniProt Q92769, whole entry": "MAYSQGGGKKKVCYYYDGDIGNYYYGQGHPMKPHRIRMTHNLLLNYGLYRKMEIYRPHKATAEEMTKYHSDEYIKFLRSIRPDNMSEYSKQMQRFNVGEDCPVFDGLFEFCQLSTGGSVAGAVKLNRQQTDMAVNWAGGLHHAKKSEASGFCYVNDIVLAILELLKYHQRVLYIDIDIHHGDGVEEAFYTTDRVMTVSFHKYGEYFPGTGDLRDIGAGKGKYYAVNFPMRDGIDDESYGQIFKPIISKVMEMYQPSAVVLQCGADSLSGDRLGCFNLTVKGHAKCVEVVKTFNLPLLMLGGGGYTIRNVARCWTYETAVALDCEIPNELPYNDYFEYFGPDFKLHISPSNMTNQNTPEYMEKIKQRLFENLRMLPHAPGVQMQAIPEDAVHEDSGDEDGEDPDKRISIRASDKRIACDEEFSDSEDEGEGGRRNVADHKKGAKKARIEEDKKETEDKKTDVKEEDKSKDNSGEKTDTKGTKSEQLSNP", "UniProt Q9BY41": "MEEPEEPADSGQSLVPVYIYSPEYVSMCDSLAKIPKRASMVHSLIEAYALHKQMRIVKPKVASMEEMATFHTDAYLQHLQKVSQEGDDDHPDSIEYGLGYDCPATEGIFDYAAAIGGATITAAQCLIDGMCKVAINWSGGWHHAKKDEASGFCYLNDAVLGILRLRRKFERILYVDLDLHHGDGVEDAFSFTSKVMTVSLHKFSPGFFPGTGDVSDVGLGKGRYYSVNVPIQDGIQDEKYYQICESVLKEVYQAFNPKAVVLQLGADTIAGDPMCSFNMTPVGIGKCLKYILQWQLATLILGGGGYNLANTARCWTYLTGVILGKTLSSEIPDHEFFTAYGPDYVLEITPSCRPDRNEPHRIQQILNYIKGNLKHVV", "UniProt Q13547, whole entry": "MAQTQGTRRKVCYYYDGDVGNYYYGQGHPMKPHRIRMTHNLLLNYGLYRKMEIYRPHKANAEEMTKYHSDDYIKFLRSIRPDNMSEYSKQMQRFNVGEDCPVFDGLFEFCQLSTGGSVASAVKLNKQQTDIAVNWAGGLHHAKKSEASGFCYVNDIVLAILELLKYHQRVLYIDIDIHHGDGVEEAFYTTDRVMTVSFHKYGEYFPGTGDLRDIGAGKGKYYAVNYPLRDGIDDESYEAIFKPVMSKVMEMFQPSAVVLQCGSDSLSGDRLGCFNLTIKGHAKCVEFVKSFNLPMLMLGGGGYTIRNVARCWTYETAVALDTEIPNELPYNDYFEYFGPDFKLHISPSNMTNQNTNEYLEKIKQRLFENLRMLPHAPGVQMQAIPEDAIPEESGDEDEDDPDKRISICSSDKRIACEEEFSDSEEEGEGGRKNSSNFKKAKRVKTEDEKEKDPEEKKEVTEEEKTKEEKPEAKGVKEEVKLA", "UniProt O15379": "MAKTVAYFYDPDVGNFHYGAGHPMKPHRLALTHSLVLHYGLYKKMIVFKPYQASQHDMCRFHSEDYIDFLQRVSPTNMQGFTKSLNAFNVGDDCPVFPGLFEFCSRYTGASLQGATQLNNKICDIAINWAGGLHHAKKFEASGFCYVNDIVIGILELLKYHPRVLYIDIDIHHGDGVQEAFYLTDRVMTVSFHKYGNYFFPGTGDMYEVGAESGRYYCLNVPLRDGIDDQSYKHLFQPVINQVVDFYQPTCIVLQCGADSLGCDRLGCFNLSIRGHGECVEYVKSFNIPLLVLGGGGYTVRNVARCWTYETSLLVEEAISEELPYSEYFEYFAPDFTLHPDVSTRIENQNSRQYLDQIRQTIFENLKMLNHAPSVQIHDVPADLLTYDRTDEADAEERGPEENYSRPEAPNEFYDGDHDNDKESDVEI"}, "source": "patent US12331044B2", "about": "“Inhibitors of histone deacetylase useful for the treatment or prevention of HIV infection” (Merck Sharp & Dohme LLC, priority 2018, dated 2025)", "key": {"human HDAC2": {"biological_target": "human HDAC2 (Homo sapiens (Human), UniProt Q92769)", "test": "HDAC2 inhibition assay (modified FLUOR DE LYS, 384-well)", "assay_type": "biochemical"}, "human HDAC8": {"biological_target": "human HDAC8 (Homo sapiens (Human), UniProt Q9BY41)", "test": "HDAC8 inhibition assay (modified FLUOR DE LYS, 384-well)", "assay_type": "biochemical", "conditions": "[…] enzyme, 200 μM substrate BML-KI178, 3 h pre-incubation"}, "human HDAC1": {"biological_target": "human HDAC1 (Homo sapiens (Human), UniProt Q13547)"}, "[1]": {"biological_target": "human HDAC3/SMRT heterodimer (Homo sapiens (Human), UniProt O15379)", "test": "biochemical"}}}
{"smiles": "N[C@@H](CCCCCC(=O)c1ccon1)c1ncc(-c2ccccc2F)[nH]1", "note": "[Example 37, (S)-7-amino-7-(5-(2-fluorophenyl)-1H-imidazol-2-yl)-1-(isoxazol-3-yl)heptan-1-one]", "values": [{"measurement": "IC50", "setting": "human HDAC2", "result": 8.5, "unit": "nM"}, {"measurement": "IC50", "setting": "human HDAC8", "result": 280, "unit": "nM"}, {"measurement": "IC50", "setting": "human HDAC1", "result": 1.4, "unit": "nM"}]}
{"smiles": "Cc1ccc2cc(-c3c[nH]c([C@H](CCCCCC(=O)c4ncco4)NC4CCN(C)CC4)n3)ccc2n1", "note": "[Example 78, (S)-7-((1-methylpiperidin-4-yl)amino)-7-(5-(2-methylquinolin-6-yl)-1H-imidazol-2-yl)-1-(oxazol-2-yl)heptan-1-one]", "values": [{"measurement": "IC50", "setting": "[1]", "result": 2.5, "unit": "nM"}]}
